This is an account of results in US9051418B2, “Glucose-PEG conjugates for reducing glucose transport into a cell” (Agency for Science, Technology and Research, priority 2008, dated 2015).

The subject of one data set is MCF-7 cells. Description: MTT cell viability assay, MCF-7 cells cultured 7 days with modified glucose. The following applies: for cell viability: control without treatment = 100%. On the procedure: MCF-7 cells were seeded onto 96-well plates at least 24 h prior to the experiment. […] MTT assay was performed to assess the cell viability. […] Cell viability was normalized with that of the control cells. […] The cells were treated as described in FIG. 3, followed by the MTT assay. […] MTT assay was carried out to monitor the viability of the cells. Values obtained for the cells without any treatments were kept as 100%. Different cancer cell lines, MCF-7 (breast cancer), H1299 (lung cancer), HepG2 (liver cancer), DU145 (prostate cancer), Caco2 (colon cancer) and AGS (gastric cancer) were obtained from American Type Culture Collection (ATCC). Normal breast epithelial cell line (MCF-10A) was used for comparison. The cells were maintained in the growth medium as described by ATCC. Approximately 10,000 cells were seeded onto a 96-well plate. Modified glucose compounds were added to the cells after 24 h of seeding. The cells were further cultured in the presence of the modified glucose compounds for up to 7 days. The medium was changed everyday along with the specified concentration of modified glucose. […] MTT assay was performed using the TACS™ MTT cell proliferation assay kit (Trevigen Inc, Md., USA). Briefly, after treatment of cells, 10 μl of MTT reagent was added and incubated at 37° C. for 4 h. The cells were lysed using detergent for 4 h at room temperature. The absorbance was measured in a standard plate reader at 570 nm.
For orientation: Tetrazolium dyes change colour on reduction, which living cells bring about.

For the next data set, the system named is MCF-10A. The following applies: 200 μM, MTT. On the procedure: MTT assay was carried out to monitor the viability of the cells. Values obtained for the cells without any treatments were kept as 100%.
Different cancer cell lines, MCF-7 (breast cancer), H1299 (lung cancer), HepG2 (liver cancer), DU145 (prostate cancer), Caco2 (colon cancer) and AGS (gastric cancer) were obtained from American Type Culture Collection (ATCC). Normal breast epithelial cell line (MCF-10A) was used for comparison. The cells were maintained in the growth medium as described by ATCC. Approximately 10,000 cells were seeded onto a 96-well plate. Modified glucose compounds were added to the cells after 24 h of seeding. The cells were further cultured in the presence of the modified glucose compounds for up to 7 days. The medium was changed everyday along with the specified concentration of modified glucose.
MTT assay was performed using the TACS™ MTT cell proliferation assay kit (Trevigen Inc, Md., USA). Briefly, after treatment of cells, 10 μl of MTT reagent was added and incubated at 37° C. for 4 h. The cells were lysed using detergent for 4 h at room temperature. The absorbance was measured in a standard plate reader at 570 nm.

In general, cell viability refers to a read-out of living cells in per cent, often relative to untreated cells. A lower cell viability goes with more harm to the cells. For glucose-PEG-PEG [GPP], the cell viability in the data set on MCF-7 cells (MCF-7, 200 μM) was 57%; in the data set on MCF-7 cells (MCF-7, 400 μM), 42%.

Take glucose-conjugated branched PEG [GBrP]: in the data set with MCF-7 cells (MCF-7, 200 μM, MTT, relative to untreated control), the “reduction in cell viability” value is on record as above 90%. In addition, the “reduction in viability of normal breast cells” value in the data set on MCF-10A was found to be 29%.
